# In patent US9803013B2, “Biological materials and uses thereof” (BioInvent International AB, priority 2005, dated 2017):
# Tests used:
# DU145 cells = experiment: Apoptosis induction in carcinoma cells (cross-linked IgG, 16-24 hours, Annexin V/PI); assay type: cell-based, human
# Procedure: (§1) The prostate carcinoma cell line PC-3 was grown in Complete Growth Medium (RPMI 1640, supplemented with 10% FCS, 10 mM HEPES, and 2 mM L-Glutamine) to 80% confluency in a 6 well plate. The prostate carcinoma cell line DU145 was grown in MEM with Earl's salts, supplemented with 10% FCS, 1 mM sodium pyruvate, and 1 mM non-essential amino acids and the derivate of a melanoma cell line MDA MB 435 was grown in DMEM supplemented with 10% FCS.
# (§2) For apoptosis assays cells were washed in PBS and serially diluted B11 IgG1 (or B1 IgG1, Trastuzumab or negative antibody control for controls) was added to individual wells and binding was allowed during a 1-2 h incubation at 4° C. The cells were washed and Complete Growth Medium was added, containing cross-linking antibody, Fab′2 Goat anti-Human Fab′2, at 10 μg/ml. Cells were incubated in a humidified atmosphere, with 5% CO2 at 37° C., for 16-24 hours. […] The percentage apoptotic cells was determined by the formula: % apoptotic cells=100−% AF488−AV/PI−/−.
# (§3) Cells were seeded in 6 well plates with Complete Growth Medium three days before the onset of the experiment. […] Cells were washed in ice-cold PBS, subjected to Annexin V/propidium iodide staining, and analysed for viability/apoptosis as described in example 5 above.
# MDA MB 435 cells = experiment: as above; assay type: cell-based, human; settings: MDA MB 435, cross-linked IgG
# Procedure: as §1, §2, §3
substance,measurement,setting,value
Trastuzumab IgG1: control antibody in carcinoma apoptosis assays; trastuzumab targets Her-2 [reference compound],apoptosis induction,DU145 cells,not able to induce apoptosis
same,apoptosis induction,MDA MB 435 cells,not able to induce apoptosis
